Experimental data: PubChem BioAssay (NCI)
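A five-concentration, 48-hour dose response in 96-well plates underlies each endpoint, interpolated linearly between surrounding concentrations. GI50: concentration for 50% inhibition of growth.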

What was measured:
Test in all cases: inhibition of tumour cell growth, NCI panel, 48 h; in the data active = GI50 below about 0.43 µM; inactive = the rest
MDA-MB-435 = system: MDA-MB-435
SF-295 CNS = system: SF-295 CNS
CCRF-CEM leukemia = system: CCRF-CEM leukemia
HT29 colon = system: HT29 colon
MCF7 breast = system: MCF7 breast
A549 NSCLC = system: A549 NSCLC
786-0 renal = system: 786-0 renal
T-47D breast = system: T-47D breast
NCI-H322M lung = system: NCI-H322M lung
OVCAR-8 ovarian = system: OVCAR-8 ovarian
SR leukemia = system: SR leukemia
NCI-H226 lung = system: NCI-H226 lung
HS 578T breast = system: HS 578T breast
UO-31 renal = system: UO-31 renal
NCI/ADR-RES ovarian = system: NCI/ADR-RES ovarian
SW-620 colon = system: SW-620 colon
MOLT-4 leukemia = system: MOLT-4 leukemia
MDA-N = system: MDA-N
SNB-75 CNS = system: SNB-75 CNS
EKVX NSCLC = system: EKVX NSCLC
HCC-2998 colon = system: HCC-2998 colon
M14 melanoma = system: M14 melanoma
OVCAR-4 ovarian = system: OVCAR-4 ovarian
SF-539 CNS = system: SF-539 CNS
HL-60(TB) leukemia = system: HL-60(TB) leukemia
SK-MEL-5 melanoma = system: SK-MEL-5 melanoma
OVCAR-5 ovarian = system: OVCAR-5 ovarian
UACC-257 melanoma = system: UACC-257 melanoma
BT-549 breast = system: BT-549 breast
HCT-116 colon = system: HCT-116 colon
OVCAR-3 ovarian = system: OVCAR-3 ovarian
HOP-92 NSCLC = system: HOP-92 NSCLC
SF-268 CNS = system: SF-268 CNS
KM12 colon = system: KM12 colon
K-562 leukemia = system: K-562 leukemia
SN12C renal = system: SN12C renal
SK-MEL-28 melanoma = system: SK-MEL-28 melanoma
U251 CNS = system: U251 CNS
MALME-3M melanoma = system: MALME-3M melanoma
TK-10 renal = system: TK-10 renal
NCI-H460 lung = system: NCI-H460 lung
HCT-15 colon = system: HCT-15 colon
LOX IMVI melanoma = system: LOX IMVI melanoma
COLO 205 colon = system: COLO 205 colon
SNB-19 CNS = system: SNB-19 CNS
UACC-62 melanoma = system: UACC-62 melanoma
DU-145 prostate = system: DU-145 prostate
A498 renal = system: A498 renal
IGROV1 ovarian = system: IGROV1 ovarian
SK-OV-3 ovarian = system: SK-OV-3 ovarian
MDA-MB-231 breast = system: MDA-MB-231 breast
PC-3 prostate = system: PC-3 prostate
ACHN renal = system: ACHN renal
CAKI-1 renal = system: CAKI-1 renal
RXF 393 renal = system: RXF 393 renal
RPMI-8226 leukemia = system: RPMI-8226 leukemia
SK-MEL-2 melanoma = system: SK-MEL-2 melanoma
NCI-H522 lung = system: NCI-H522 lung
NCI-H23 lung = system: NCI-H23 lung
HOP-62 NSCLC = system: HOP-62 NSCLC

Measured: GI50

CC(=O)n1c(=O)n(C2CCN(CCCC(=O)c3ccc(F)cc3)CC2)c2ccccc21
inactive: MDA-MB-435 = 26.1 µM | SF-295 CNS 32.6 µM | CCRF-CEM leukemia 21.9 µM | HT29 colon 21.8 µM | MCF7 breast 27 µM | A549 NSCLC 55.2 µM | 786-0 renal 27.6 µM | T-47D breast 31.1 µM | NCI-H322M lung 45.7 µM | OVCAR-8 ovarian 52.9 µM | SR leukemia 15.8 µM | NCI-H226 lung 30.7 µM | HS 578T breast 33.7 µM | UO-31 renal 40.4 µM | NCI/ADR-RES ovarian 54.7 µM | SW-620 colon 40.6 µM | MOLT-4 leukemia 18.7 µM | MDA-N 32.1 µM | SNB-75 CNS 59.5 µM | EKVX NSCLC 88.8 µM | HCC-2998 colon 30.2 µM | M14 melanoma 18.3 µM | OVCAR-4 ovarian 34.3 µM | SF-539 CNS 25.3 µM | HL-60(TB) leukemia 14.3 µM | SK-MEL-5 melanoma 15 µM | OVCAR-5 ovarian 75.5 µM | UACC-257 melanoma 19.9 µM | BT-549 breast 39.5 µM | HCT-116 colon 25.5 µM | OVCAR-3 ovarian 47.4 µM | HOP-92 NSCLC 32.7 µM | SF-268 CNS 62.1 µM | KM12 colon 29.7 µM | K-562 leukemia 21.6 µM | SN12C renal 89.2 µM | SK-MEL-28 melanoma 26.6 µM | U251 CNS 55.2 µM | MALME-3M melanoma 17.3 µM | TK-10 renal 58.1 µM | NCI-H460 lung 27.9 µM | HCT-15 colon 52.6 µM | LOX IMVI melanoma 22.5 µM | COLO 205 colon 17.5 µM | SNB-19 CNS > 100 µM | UACC-62 melanoma 31.2 µM | DU-145 prostate > 100 µM | A498 renal 69.4 µM | IGROV1 ovarian 61.8 µM | SK-OV-3 ovarian > 100 µM | MDA-MB-231 breast 43.6 µM | PC-3 prostate 58.1 µM | ACHN renal 73 µM | CAKI-1 renal 62.2 µM | RXF 393 renal 33.4 µM | RPMI-8226 leukemia 19.3 µM | SK-MEL-2 melanoma 28 µM | NCI-H522 lung 31.4 µM | NCI-H23 lung 57.1 µM | HOP-62 NSCLC 33 µM
